B1: Optineurin (Homo sapiens), Q96CV9 (parent)
chain: MSHQPLSCLTEKEDSPSESTGNGPPHLAHPNLDTFTPEELLQQMKELLTENHQLKEAMKLNNQAMKGRFEELSAWTEKQKEERQFFEIQSKEAKERLMALSHENEKLKEELGKLKGKSERSSEDPTDDSRLPRAEAEQEKDQLRTQVVRLQAEKADLLGIVSELQLKLNSSGSSEDSFVEIRMAEGEAEGSVKEIKHSPGPTRTVSTGTALSKYRSRSADGAKNYFEHEELTVSQLLLCLREGNQKVERLEVALKEAKERVSDFEKKTSNRSEIETQTEGSTEKENDEEKGPETVGSEVEALNLQVTSLFKELQEAHTKLSEAELMKKRLQEKCQALERKNSAIPSELNEKQELVYTNKKLELQVESMLSEIKMEQAKTEDEKSKLTVLQMTHNKLLQEHNNALKTIEELTRKESEKVDRAVLKELSEKLELAEKALASKQLQMDEMKQTIAKQEEDLETMTILRAQMEVYCSDFHAERAAREKIHEEKEQLALQLAVLLKENDAFEDGGRQSLMEMQSRHGARTSDSDQQAYLVQRGAEDRDWRQQRNIPIHSCPKCGEVLPDIDTLQIHVMDCII

Variants of: B1
Conditions: with rab8a_human RAB8A

| effect of a mutation on the interaction | Variant |
| --- | --- |
| disrupting interaction | E50K |
